Assay results reported in ChEMBL document CHEMBL1137857, “Design and synthesis of substituted N-methylbenzamide analogues derived from SR 48,968 as neurokinin-2 receptor antagonists” (Bioorg Med Chem Lett, 2004).

By UniProt entry, the sequences of proteins in these tests, tags left out.
UniProt Q64077, whole entry: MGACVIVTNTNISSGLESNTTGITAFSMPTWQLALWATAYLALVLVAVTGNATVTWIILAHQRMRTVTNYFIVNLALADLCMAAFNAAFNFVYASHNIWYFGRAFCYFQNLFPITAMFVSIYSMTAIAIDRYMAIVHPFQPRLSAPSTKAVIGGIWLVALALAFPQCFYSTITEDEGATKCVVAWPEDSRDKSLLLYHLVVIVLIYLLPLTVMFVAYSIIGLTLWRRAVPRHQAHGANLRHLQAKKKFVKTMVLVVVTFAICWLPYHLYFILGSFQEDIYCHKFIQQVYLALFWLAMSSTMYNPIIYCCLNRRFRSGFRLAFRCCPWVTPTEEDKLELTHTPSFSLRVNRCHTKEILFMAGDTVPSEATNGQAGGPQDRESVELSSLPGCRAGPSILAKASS

Molecular target: Substance-K receptor (Cavia porcellus) (UniProt Q64077)
Test: Antagonistic activity against Tachykinin receptor 2 binding to [b-Ala8] NKA(4-10) in isolated guinea pig trachea

pKb: 9.5
SMILES: CN(C[C@H](CCN1CCC(O)(c2ccccc2)CC1)c1ccc(Cl)c(Cl)c1)C(=O)c1ccccc1
